This is an account of results in patent US10799478B2, “Treatment of androgen deprivation therapy associated symptoms” (priority 2014, dated 2020).

The subject of series [1] is Orx rats. Briefly: Orchidectomized Rat Assay. The conditions noted are these: treatment of 8 weeks in rat orchidectomized for 8 weeks. The class given is in vivo.
Series [2] relates to Sprague-Dawley rat. The conditions noted are these: 150 mg/kg/day recovery group. As for the experimental part:
Vehicle controls (15 rats/sex in main study and 5 rats/sex in recovery study) are given daily oral gavage dose of 5% Vitamin E TPGS, 1% hydroxyethylcellulose, 0.05% Dow Corning Antifoam 1510-US in purified water. Fifteen males and 15 females are assigned to each treatment main study group. Five males and 5 females are assigned to the recovery study for the vehicle control and 150 mg/kg/day groups. […] All administrations are given in a 15 mL/kg volume.

Series [3] deals with healthy human volunteers. Briefly: Phase Ia Study in Healthy Volunteers. The class given is in vivo.
Series [4] relates to healthy human volunteers. Briefly: Phase Ib Study of Healthy Volunteers. In kind it is in vivo. The conditions noted are these: eugonadal healthy human volunteers.
Series [5] relates to healthy volunteers. Briefly: Treatment of healthy volunteers (12 weeks). The class given is in vivo, human.
A short description of series [6]: 6 month treatment of dogs (Table 10). The conditions noted are these: male, dog, in vivo.

With `CC(C)OC(=O)N[C@H]1Cc2c(n(Cc3ccccn3)c3ccc(C#N)cc23)C1` (single isomer, unassigned) [Example 1], in series [1], the “accrual of seminal vesicle weight” value is reported as “no significant accrual”, the “lumbar vertebra cross-sectional area (LV-TA)” value is listed as “trend towards increase”, the “lumbar vertebra trabecular bone mineral content (LV-TBMC)” value is reported as “trend towards increase” and the “lumbar vertebra trabecular bone mineral density (LV-TBMD)” value was “significant accrual”. Also, the “effects on male reproductive tissues and LH and testosterone, reversibility” value in series [2] is reported as “reversed by the end of the 12-week recovery period”. Also, in series [3] (healthy human volunteers), the “calf muscle area by peripheral Computer Tomography at the gastrocnemius bundle” value was “increase” and the “whole body lean muscle mass by DEXA” value is “increase”. In addition, the “whole body lean muscle mass effect compared to 0 mg placebo, Dunnett's test (p<0.05)” value in series [3] (males, 5 mg dose level) is “statistically significant”. The “N-terminal propeptide of procollagen type 1 (P1NP), biomarker for bone anabolism” value in series [4] is on record as “positive exposure-response relationship”. In addition, in series [4] (more pronounced in males), the serum testosterone levels entry is given as “decrease”. Besides, in series [5], the fat mass result is recorded as “decrease” and the lean muscle mass result is “increase”. The molecule also displayed an AUC(0-t) in series [6] (3 mg/kg/day) of 6490 ng·h/mL. Further, in series [6] (30 mg/kg/day), the AUC(0-t) was found to be 44400 ng·h/mL.

The AUC(0-t) is the area under the concentration-time curve up to a stated or last time point. The low end stands for low exposure, the high end for high exposure.
